Source: US20070213394A1 (priority 2004, published 2007)

By UniProt entry, the sequences of proteins in these tests, tags left out. Where a name states a change or a piece, a line headed by the entry shows the natural chain unless it says otherwise.
UniProt P41145: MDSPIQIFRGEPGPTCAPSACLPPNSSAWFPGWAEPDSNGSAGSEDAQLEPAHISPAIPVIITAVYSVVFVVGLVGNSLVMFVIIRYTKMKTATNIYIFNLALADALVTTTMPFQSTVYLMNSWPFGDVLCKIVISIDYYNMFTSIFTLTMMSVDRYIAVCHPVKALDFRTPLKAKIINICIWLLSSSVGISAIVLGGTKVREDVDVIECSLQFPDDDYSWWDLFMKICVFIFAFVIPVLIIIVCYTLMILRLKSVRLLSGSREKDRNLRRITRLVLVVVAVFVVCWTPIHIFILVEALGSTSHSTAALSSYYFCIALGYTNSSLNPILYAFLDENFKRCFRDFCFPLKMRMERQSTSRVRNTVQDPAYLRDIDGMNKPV

Assays:
[1] = biological target: T1, human kappa opioid receptor (Homo sapiens, UniProt P41145); assay: biochemical; conditions: for Emax: 1 h, read-out: Efficacy
T1 construct: expressed in transfected cells; host or cells: Chinese hamster ovary cells (CHO-hKOR), membranes

[2] = biological target: T1, human kappa opioid receptor; assay: biochemical; assay type: binding

Row | SMILES | Emax [1] | further results
1 | COC(=O)[C@@H]1C[C@@H](OC(C)=O)C(=O)[C@H]2[C@@]1(C)CC[C@H]1C(=O)O[C@H](c3ccoc3)C[C@]21C [2-episalvinorin A, 2-epi-salvinorin A] |  | Efficacy [1]: 102%
2 | COC(=O)[C@@H]1C[C@@H](O)C(=O)C2[C@@]1(C)CC[C@H]1C(=O)O[C@H](c3ccoc3)C[C@]21C (stereo partly drawn) [2-episalvinorin B, 2-epi-salvinorin B] |  | Ki [2]: > 10000 nM
3 | COC(=O)[C@@H]1C[C@H](O)C(=O)C2[C@@]1(C)CC[C@H]1C(=O)O[C@H](c3ccoc3)C[C@]21C (some centres unmarked) [Compound 1, salvinorin B] |  | Ki [2]: 155 ± 23 nM; EC50 [1]: 371 ± 49 nM
4 | CCCCO[C@H]1C[C@@H](C(=O)OC)[C@]2(C)CC[C@H]3C(=O)O[C@H](c4ccoc4)C[C@]3(C)C2C1=O (some centres unmarked) [Compound 13, 2-n-butoxy-salvinorin B] | 105% | 
5 | COC(=O)[C@@H]1C[C@H](OCc2ccccc2)C(=O)C2[C@@]1(C)CC[C@H]1C(=O)O[C@H](c3ccoc3)C[C@]21C (some centres unmarked) [Compound 17, 2-benzyloxy-salvinorin B] | 102% | 
6 | CCN[C@@H]1C[C@@H](C(=O)OC)[C@]2(C)CC[C@H]3C(=O)O[C@H](c4ccoc4)C[C@]3(C)C2C1=O (some centres unmarked) [Compound 18, 2-(N-ethylamino)-salvinorin] | 111% | 
7 | COC(=O)[C@@H]1C[C@@H](NC(C)C)C(=O)C2[C@@]1(C)CC[C@H]1C(=O)O[C@H](c3ccoc3)C[C@]21C (stereo partly drawn) [Compound 75, 2-epi-(N-isopropyl)-salvinorin] | 107% | 
8 | CCNC1CC(C(=O)OC)C2(C)CCC3C(=O)OC(c4ccoc4)CC3(C)C2C1=O (centres unmarked) [Compound 209a, 2-(N-ethyl)-salvinorin] | 104% | 
9 | COC(=O)C1CC(NC(C)=O)C(=O)C2C1(C)CCC1C(=O)OC(c3ccoc3)CC12C (centres unmarked) [Compound 212a, 2-(acetamide)-salvinorin] | 106% | 
10 | COC(=O)C1CC(NC(C)=O)C(=O)C2C1(C)CCC1C(=O)OC(c3ccoc3)CC12C (stereo not drawn) [Compound 212b, 2-epi-(acetamide)-salvinorin] |  | Efficacy [1]: 103%
